The values below come from patent US20240199535A1, “DEUTERATED DHODH INHIBITORS” (priority 2021, published 2024).

pEC50: −log10 of the molar value.

The test system of this assay is SARS-CoV-2. Nature of the assay: Antiviral activity on SARS-CoV-2, viral replication (YFP) assay. It is filed as cell-based. Conditions: read-out: EC50 range.

For `[2H]C([2H])([2H])Oc1cccc(-c2ccc(NC(=O)C3=C(C(=O)O)CCC3)c(F)c2)c1` [Example 1, 2-((3-Fluoro-3′-(methoxy-d3)-[1,1′-biphenyl]-4-yl)carbamoyl)cyclopent-1-ene-1-carboxylic Acid], the negative logarithm of the EC50 (pEC50) was > 5.00.

What is called pEC50 is the negative decadic logarithm of the EC50, by convention in mol/L.
